What all share (design): species or system Alcaligenaceae bacterium FB188
The target of assay [1] is T1, Histone deacetylase-like amidohydrolase (Alcaligenes sp. (strain DSM 11172) (Bordetella sp. (strain FB188)), UniProt Q70I53).
T1 sequence (Q70I53 whole entry): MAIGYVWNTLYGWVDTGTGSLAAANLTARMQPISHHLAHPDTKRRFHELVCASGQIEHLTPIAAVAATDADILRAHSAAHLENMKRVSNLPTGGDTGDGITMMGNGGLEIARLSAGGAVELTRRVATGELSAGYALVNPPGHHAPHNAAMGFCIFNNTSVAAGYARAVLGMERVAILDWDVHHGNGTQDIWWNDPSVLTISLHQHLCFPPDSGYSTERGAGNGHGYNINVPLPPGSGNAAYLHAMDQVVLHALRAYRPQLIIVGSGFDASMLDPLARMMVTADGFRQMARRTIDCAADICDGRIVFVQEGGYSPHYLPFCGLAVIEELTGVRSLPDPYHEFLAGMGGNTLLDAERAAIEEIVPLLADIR
Put plainly: Displacement of Atto700-HA from Bordetella / Alcaligenes strain FB188 HDAH by fluorescence anisotropy. (Fluorescence polarisation rises when a labelled molecule tumbles more slowly, as on binding a larger partner.)

The target is the same in assay [2]. Put plainly: Inhibition of Bordetella / Alcaligenes strain FB188 HDAH by fluorimetric assay.
Assay [3] has the same target. Put plainly: Binding affinity to Bordetella / Alcaligenes strain FB188 HDAC by FRET assay.

One may read the Ki as a measure of affinity in units of concentration, obtained from inhibition or displacement. The low end stands for higher affinity, the high end for lower affinity. The term IC50 denotes the concentration that gives 50% inhibition. A lower IC50 goes with higher potency. For the compound `O=C(CCCCCCC(=O)Nc1ccccc1)NO` [VORINOSTAT], the Ki turned out to be 1.3 µM in assay [1] and 1 µM in assay [3]. Besides, the IC50 in assay [2] came to 1 µM.

Source of the values: ChEMBL document CHEMBL1158439, “Non-isotopic dual parameter competition assay suitable for high-throughput screening of histone deacetylases” (Bioorg Med Chem Lett, 2009).
